This data set concerns the target insulin (Homo sapiens, UniProt P01308). The data set can be described thus: Stabilization and solubilization of insulin by highly methylated cyclodextrins. To be noted: cyclodextrins at 2 or 4% in phosphate buffered solution, insulin 1 mg/ml, final pH less than 6.

The chains behind the UniProt entries cited, without tags or fusion partners. Residues count along the entry.
UniProt P01308, 25-54 limits assumed, species assumed: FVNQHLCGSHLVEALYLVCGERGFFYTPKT
UniProt P01308, 90-110 limits assumed, species assumed: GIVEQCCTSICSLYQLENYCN

Regarding insulin, the “cooperative effects of two hosts” value is on record as “No cooperative effects were found”.
